Experimental data as given in patent US9505780B2, “Thienopyranones as kinase and epigenetic inhibitors” (SignalRx Pharmaceuticals, Inc., priority 2014, dated 2016).

Sequences of proteins named here, by UniProt entry; tags and fusion partners are left off. A change or cut given only in a name is not applied to a line headed by its entry.
UniProt P48736: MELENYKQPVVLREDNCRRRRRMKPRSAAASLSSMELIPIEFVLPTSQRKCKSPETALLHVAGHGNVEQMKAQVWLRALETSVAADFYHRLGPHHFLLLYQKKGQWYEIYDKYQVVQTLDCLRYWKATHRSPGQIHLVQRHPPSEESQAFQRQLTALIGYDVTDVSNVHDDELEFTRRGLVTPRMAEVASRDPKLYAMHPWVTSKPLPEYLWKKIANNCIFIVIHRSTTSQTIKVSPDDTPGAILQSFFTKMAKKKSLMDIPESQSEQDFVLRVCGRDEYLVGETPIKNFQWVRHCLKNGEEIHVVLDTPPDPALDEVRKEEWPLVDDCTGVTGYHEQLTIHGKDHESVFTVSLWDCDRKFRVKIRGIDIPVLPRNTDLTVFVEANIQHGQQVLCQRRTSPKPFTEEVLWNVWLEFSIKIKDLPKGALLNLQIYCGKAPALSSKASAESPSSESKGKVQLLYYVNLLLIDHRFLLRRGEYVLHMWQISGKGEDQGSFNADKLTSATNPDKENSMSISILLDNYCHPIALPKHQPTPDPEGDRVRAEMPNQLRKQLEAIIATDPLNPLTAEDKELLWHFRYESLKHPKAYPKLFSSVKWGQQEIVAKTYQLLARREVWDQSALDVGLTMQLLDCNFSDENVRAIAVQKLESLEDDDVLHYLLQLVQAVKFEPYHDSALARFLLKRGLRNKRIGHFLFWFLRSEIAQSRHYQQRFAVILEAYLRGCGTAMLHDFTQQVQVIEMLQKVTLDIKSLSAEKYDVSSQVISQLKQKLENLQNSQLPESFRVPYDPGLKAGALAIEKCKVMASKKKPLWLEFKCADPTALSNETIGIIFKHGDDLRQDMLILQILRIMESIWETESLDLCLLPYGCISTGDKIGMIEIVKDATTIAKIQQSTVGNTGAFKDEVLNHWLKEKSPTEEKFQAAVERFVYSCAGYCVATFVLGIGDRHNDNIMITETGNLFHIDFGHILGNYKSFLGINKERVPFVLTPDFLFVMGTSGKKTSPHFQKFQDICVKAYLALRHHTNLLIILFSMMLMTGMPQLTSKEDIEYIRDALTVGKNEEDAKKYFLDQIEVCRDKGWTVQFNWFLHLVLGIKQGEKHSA

Target: PI3Kγ (Homo sapiens (Human), UniProt P48736)
Experiment: PI3K gamma isoform inhibition
Format: biochemical
Source text: Inhibitory activity can be determined routinely using known methods and also front commercial vendors offering this service for kinases and bromodomain proteins. […] In vivo, PI3K inhibition can be determined from target tissue biopsies by standard tissue processing to disrupt cells and then performing Western Blot analysis to determine the presence or absence of pAKT (substrate of PI3K) relative to a control sample. The activity of a compound of the invention as an inhibitor of a bromodomain-containing protein, such as a BET protein, such as BRD2, BRD3, BRD4, and/or BRDT, or an isoform or mutant thereof may be determined in vitro, in vivo, or in a cell line. In vitro assays include assays that determine inhibition of bromodomain-containing proteins. Alternatively, inhibitor binding may be determined by running a competition experiment where a provided compound is incubated with a bromodomain-containing protein, such as a BET protein bound to known ligands, labeled or unlabeled. For example, bromodomain inhibition can be determined in vitro using Alpha Screen Technology (http://www.reactionbiology.com/webapps/site/NewsPDFs/Bromodomain%20Assay%20Platform%20for%20Drug%/20Screening%20and%20Discovery.pdf). […]

**Q.** How did the IC50 turn out when `O=c1cc(N2CCOCC2)oc2c(-c3ccccc3)cccc12` [LY294002, 2-(4-morpholinyl)-8-phenyl-4H-1-benzopyran-4-one, reference compound] was run?
**A.** 1060 nM
